Assay: in vivo
Conditions: mouse, po
Experimental: Mice (ddy strain, male, 5 weeks old) are reared for one week, then fasted for 15 hours and thereafter orally given the compound forcibly. After the administration, the mice are placed into plastic cages, with free access to a solid diet and water, and checked for mortality 3 days, one week, 2 weeks and 3 weeks later. LD50 is calculated according to the method of Litchfield and Wilcoxon. As a control drug, 1-(2-tetrahydrofuryl)-5-fluorouracil is used.

Compound `O=c1[nH]c(=O)n(C2CCCO2)cc1F` (stereo not shown) [1-(2-tetrahydrofuryl)-5-fluorouracil, reference compound] has an LD50 at 72 h of 1000 mg/kg, an LD50 at 168 h of 960 mg/kg and an LD50 at 336 h of 900 mg/kg. For the same compound, the LD50 at 504 h was 800 mg/kg.

From patent publication US4371535A, “Method of and composition for delivering 5-fluorouracil to tumors” (priority 1976, dated 1983)
